Assay results taken from patent US20250235496A1, “USE OF BELLIDIFOLIN (BEL) AND/OR BEL-CONTAINING EXTRACT IN PREPARATION OF ANTIDEPRESSANT PRODUCT” (priority 2024, published 2025).

Tested on: 5-HT
Assay: Serum 5-HT level, BEL study
Type: in vivo
Conditions: 20 mg/kg/d gavage, CORT-induced mice
Experimental: Behavioral experiments were conducted once a week, and the serum 5-HT and CORT levels of mice were recorded.

In the case of `CNCCC(Oc1ccc(C(F)(F)F)cc1)c1ccccc1` (stereo not shown) [Flu, fluoxetine hydrochloride, reference compound], the “Serum 5-HT” value is reported as 142.08 ± 11.12 ng/mL.

Structures can show the parent of a compound that is named as a salt.
